Data as given in PMC10987521, “An all-in-one tetrazine reagent for cysteine-selective labeling and bioorthogonal activable prodrug construction” (Nature Communications, 2024).

Test system: B16F10 melanoma tumor
Assay: In vivo anticancer efficacy, subcutaneous B16F10 melanoma tumor model
Set-up: species or system BALB/c nude mice
Conditions: Data 3
Protocol: Tumor-bearing mice were established by subcutaneously injecting a suspension of 5 × 10^5 B16F10 cells per mouse into the front flank of each nude mouse. When tumor volume reached 50−70 mm^3, the animals were randomly divided into five groups (n = 5). The mice were administered different compounds suspended in PBS via the tail vein every 3 days for a total of four times.
The mice underwent four treatment courses on day 0, day 3, day 6, and day 9. Tumor size and body weight were measured every day. Tumor volume was calculated via the following formula: V = 1/2 × (minor axis) × (major axis)[2].
After 12 days, the mice were sacrificed and dissected to obtain tumor tissues and main organs, including heart, liver, spleen, lung, and kidney. Subsequently, all tissues were fixed in a 4% paraformaldehyde solution, routinely paraffin-embedded and sectioned, and then stained with hematoxylin and eosin, as well as using TdT-mediated dUTP nick-end labeling (TUNEL) for subsequent pathological analysis. TUNEL-positive cells appeared fluorescent green, representing the apoptosis of tumor cells (nuclei were fluorescent blue, stained with DAPI).
13. In vivo anticancer efficacy […]
13.2 Calculation of the tumor growth inhibition values (TGI)
Tumor growth inhibition values (TGI) were calculated using the following formula: TGI (%) = (1 − RTVtreatment/
RTVcontrol)*100. […]

COc1cccc2c1C(=O)c1c(O)c3c(c(O)c1C2=O)C[C@@](O)(C(=O)CO)C[C@@H]3O[C@H]1C[C@H](N)[C@H](O)[C@H](C)O1 [Dox, doxorubicin]
tumor growth inhibition values (TGI %): 64.5%
